An excerpt weighted towards active compounds, which were near 1.8% of everything screened.
DENV2 CPE = inhibitors of DENV2 cytopathic effect, primary screen, cell-based, plate reader, single concentration. DENV2-infected cells, cytopathic effect rescue. CPE inhibition, % at 9.99 µM. hit rate 1.7% among 350,000. AID 651640, 2012; in the data active means CPE inhibition above about 20%, passing the limit was not always enough; inconclusive means no clear call, values can overlap the other calls; tested in BHK-21 cells;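 further: 0% = median of neutral control wells and 100% = median of positive control wells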
E-sel inducer = E-selectin induction in HUVECs, primary screen, imaging, HUVEC, immunofluorescence imaging, single point; activation, % at 7.58 µM; P16581; AID 686992, 2013; hit rate 0.37% among 260,000; normalized: neutral wells 0, TNF-alpha wells 100;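 active means mean E-selectin-positive cell signal at least 10% of the positive control, reached in at least 60% of replicates, without over 20% cell loss; inconclusive means no rule given, readout overlaps actives, possibly toxicity-flagged; inactive means the rest, including those meeting only one limit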
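Test system: HUVEC | Signal: Immunofluorescence imaging | Read-out: Percent E-selectin-positive cells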
Yeast UUG start = yeast start codon fidelity modulation; AID 602363; activity score, % at 18.7 µM; S. cerevisiae UUG-firefly luciferase reporter, luminescence/redox ratio; 0.13% of 350,000 active;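 active means replicate mean at a twofold rise or more, about +100% in these data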;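 further: firefly luciferase made from a UUG start codon reports start codon fidelity; reporter light over untreated wells divided by growth signal over untreated wells; some hits fall short of that in this replicate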
Cneo AK release = Cryptococcus neoformans cell lysis inducers, primary screen, AK release luminescence, single concentration | lysis activity, % at 15 µM | C. neoformans lysis, adenylate kinase release luminescence, 4 h; normalised: neutral wells 0, clomiphene wells 100 | hit rate 0.2% among 360,000 | AID 651654, 2012;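 active means mean lysis activity across replicates of at least 80%, whatever share of replicates individually reach that level; inactive means mean lysis activity below 80%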
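read-out = cell lysis signal | test system = log-phase Cryptococcus neoformans yeast cells | input = cells at 5 × 10^6 per mL | medium = fresh YPD growth medium | signal = luminescent adenylate kinase detection reagent | timing = 4 h at 37 °C static, read 1 h later | dosing = single dose | controls = Clomiphene as positive lysis control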
Starred values were filed as active, the others as inactive; ? = inconclusive; · = no result.

Short keys: A = DENV2 CPE; B = E-sel inducer; C = Yeast UUG start; D = Cneo AK release
molecule: COc1ccc2c3c(n(C)c2c1)[C@H](CO)N(C(=O)NC(C)C)CC31CCN(CC2CCCC2)CC1
  A: 40* | B: 0 | C: · | D: ·
molecule: CCCNC(=O)N1CC2(CN(S(=O)(=O)c3ccccc3)C2)c2c(n(C)c3cc(OC)ccc23)[C@H]1CO
  A: -4 | B: 0 | C: · | D: ·
molecule: CCCNC(=O)N1CC2(CN(S(=O)(=O)c3cccc(OC)c3)C2)c2c(n(C)c3cc(OC)ccc23)[C@H]1CO
  A: 41* | B: 0 | C: · | D: ·
molecule: CCCNC(=O)N1CC2(CCN(C(=O)COC)CC2)c2c(n(C)c3cc(OC)ccc23)[C@@H]1CO
  A: 70* | B: 0 | C: · | D: ·
molecule: Cc1noc(C)c1NC(=O)Nc1cccc2c1O[C@@H](CN(C)S(=O)(=O)c1cccs1)[C@@H](C)CN([C@@H](C)CO)C2=O
  A: 3 | B: 0 | C: 3 | D: -1
molecule: Cc1ccc2ccc(C(Nc3ccccc3)c3ccc(C(C)C)cc3)c(O)c2n1 (centres undefined)
  A: -5 | B: 0 | C: · | D: ·
molecule: Cc1ccc2ccc(C(Nc3ccccc3)c3ccccc3)c(O)c2n1 (centres undefined)
  A: 35* | B: 0 | C: · | D: ·
molecule: O=C(C1CC1)N1[C@H](CO)[C@@H](c2ccccc2)C12CN(CCC(F)(F)F)C2
  A: -4 | B: 0 | C: · | D: ·
molecule: CN(C)S(=O)(=O)c1ccc(NC=C(C#N)C#N)cc1
  A: 0 | B: 0 | C: -10 | D: 138*
molecule: COc1ccc(/C=N/NC(=O)c2nc(-c3ccccc3)n(-c3ccccc3)n2)cc1OC
  A: 38* | B: · | C: -35 | D: -12
molecule: CCC(=O)N1CC(=O)N2[C@H](CO)[C@@H](c3ccc(C#CC4CCCCC4)cc3)[C@H]2C1
  A: -4 | B: 0 | C: · | D: ·
molecule: O=C(Nc1ccc(F)cc1)N1C[C@@H]2[C@H](c3ccccc31)[C@H](CO)N2Cc1cocn1
  A: -1 | B: 0 | C: 56 | D: 91*
molecule: O=C(c1cccc(F)c1)N1C[C@@H]2[C@H](c3ccccc31)[C@H](CO)N2C(=O)c1cccc(F)c1
  A: -5 | B: 0 | C: -2 | D: 0
molecule: O=C(c1cccc(F)c1)N1C[C@@H]2[C@H](c3ccccc31)[C@H](CO)N2Cc1cocn1
  A: -1 | B: 0 | C: 41 | D: 82*
molecule: C[C@H](CO)N1C[C@H](C)[C@@H](CN(C)Cc2ccncc2)Oc2ccc(NC(=O)Cc3ccccc3)cc2C1=O
  A: -8 | B: · | C: 18 | D: 50
molecule: COC(=O)C[C@H]1C[C@H]2c3cc(NS(C)(=O)=O)ccc3O[C@H]2[C@H](CO)O1
  A: 0 | B: 1 | C: · | D: -5
molecule: O=C(C[C@@H]1C[C@@H]2c3cc(NC(=O)Cc4ccncc4)ccc3O[C@@H]2[C@@H](CO)O1)NCCN1CCCCC1
  A: 77* | B: 0 | C: · | D: 61
molecule: O=C(O)C[C@H]1C[C@@H]2c3cc(NC(=O)Cc4ccncc4)ccc3O[C@@H]2[C@@H](CO)O1
  A: 90* | B: 0 | C: · | D: 2
molecule: CS(=O)(=O)Nc1ccc2c(c1)[C@H]1C[C@H](CC(=O)O)O[C@@H](CO)[C@H]1O2
  A: 25* | B: 1 | C: · | D: ·
molecule: O=C(C[C@H]1C[C@@H]2c3cc(NC(=O)Cc4ccncc4)ccc3O[C@@H]2[C@H](CO)O1)NCCN1CCCCC1
  A: -1 | B: 0 | C: · | D: -10
molecule: C[C@H](NC(=O)C[C@@H]1CC[C@H](NC(=O)C2CCOCC2)[C@@H](CO)O1)c1ccccc1
  A: 1 | B: 0 | C: -4 | D: 0
molecule: CCCC(=O)N1CC2(CN(S(C)(=O)=O)C2)c2c([nH]c3cc(OC)ccc23)[C@@H]1CO
  A: -10 | B: -1 | C: · | D: ·
molecule: COc1cccc(OCCCN2CCC(C(O)(c3ccccc3)c3ccccc3)CC2)c1
  A: -5 | B: 0 | C: · | D: ·
molecule: Cc1cccc(OCCCN2CCC(C(O)(c3ccccc3)c3ccccc3)CC2)c1
  A: 34* | B: 0 | C: · | D: ·
molecule: CC(=O)Nc1ccc(OCCCN2CCC(C(O)(c3ccccc3)c3ccccc3)CC2)cc1
  A: 34* | B: 1 | C: · | D: ·
molecule: CC(=O)Nc1ccccc1OCCCN1CCC(C(O)(c2ccccc2)c2ccccc2)CC1
  A: 4 | B: 1 | C: · | D: ·
molecule: Cc1ccc(-c2cccc(C3CC=CC4C3C(=O)N(Cc3ccccc3)C4c3ccc(C(F)(F)F)cc3)c2)cc1 (centres undefined)
  A: 93* | B: 0 | C: -1 | D: -1
molecule: COC(=O)[C@H](Cc1ccccc1)NC(=O)Cn1cnc2c(OCc3ccccc3)ncnc21
  A: -1 | B: 1 | C: -10 | D: -1
molecule: CCOC(=O)CC[C@H](NC(=O)Cn1cnc2c(OCc3ccccc3)ncnc21)C(=O)OCC
  A: 27* | B: 0 | C: -17 | D: 0
molecule: COc1c2c(cc3oc(C)cc(=O)c13)OC(C(C)(C)OC1OC(CO)C(O)C(O)C1O)C2 (centres undefined)
  A: ? | B: 0 | C: -26 | D: 1

More structures follow.
Second line of a record: DENV2 CPE, E-sel inducer, Yeast UUG start, Cneo AK release
> COc1c2c(cc3oc(CO[C@@H]4O[C@H](CO)[C@@H](O)[C@H](O)[C@H]4O)cc(=O)c13)O[C@H](C(C)(C)O)C2
    24*, 0, -21, -1
> C[C@H](CO)N1C[C@H](C)[C@H](CN(C)Cc2ccc(C(=O)Nc3ccccc3N)cc2)Oc2ccc(NC(=O)CCN3CCOCC3)cc2C1=O
    -8, 2, -7, -1
> C[C@@H]1CN([C@@H](C)CO)C(=O)c2cc(C#CC3(O)CCCC3)cnc2O[C@@H]1CN(C)Cc1ccccn1
    -2, ?, ·, -1
> CN1CCN(c2ncnc3c2ncn3[C@H]2CN(Cc3ccc(Cl)cc3)C[C@@H](CO)O2)CC1
    35*, ·, 1, 0
> OCCN1CCN(c2ncnc3c2ncn3[C@H]2CN(Cc3ccc(Cl)cc3)C[C@@H](CO)O2)CC1
    -7, 0, -2, 0
> C[C@H]1CN([C@@H](C)CO)C(=O)c2cccc(NS(C)(=O)=O)c2O[C@@H]1CN(C)CC1CCCCC1
    -12, 1, -10, 43
> COCCn1nnnc1C(c1cc2cc(C)ccc2[nH]c1=O)N1CCN(C2CCCCC2)CC1 (centres undefined)
    30*, ·, 13, 1
> CCCN1[C@@H]2c3ccc(-c4cccnc4)c(=O)n3C[C@@H]2[C@@H](CO)[C@@H]1C(=O)NCCN1CCCC1
    ·, 0, ·, 0
> C=CCNc1nc(NCc2ccc(NC(C)=O)cc2)c2sc(-c3ccccc3)cc2n1
    6, 1, -8, -1
> CC(=O)Nc1ccc(CNc2nc(NC(C)C)nc3cc(-c4ccccc4)sc23)cc1
    10, 33*, ·, 0
> O=C(N[C@@H]1CC[C@H](CCNS(=O)(=O)c2ccc(Cl)cc2)O[C@H]1CO)c1cccc(F)c1
    -1, 2, 5, -2
> CC(=O)N(C)C[C@@H]1[C@H](c2ccc(-c3ccc(F)cc3)cc2)[C@H](CO)N1C(C)=O
    1, 0, ·, ·
> CC(=O)N(C)C[C@H]1[C@H](c2ccc(-c3ccc(F)cc3)cc2)[C@@H](CO)N1C(C)=O
    33*, 0, -13, 2
> CC(=O)N1[C@H](CN(C)C(=O)c2ccccc2F)[C@@H](c2ccccc2)[C@@H]1CO
    61*, 0, -8, -4
> CC(=O)N1[C@H](CO)[C@H](c2ccccc2)[C@H]1CN(C)C(=O)c1ccccc1F
    -6, 0, -3, -4
> Cc1ccccc1NC(=S)NC(=O)CCc1ccccc1
    ·, ·, 0, 103*
> CC(C)c1onc(C(=O)N2CCN(Cc3ccccc3)CC2)c1[N+](=O)[O-]
    168*, ·, -6, 1
